Earlier results in PMC6381106 (Scientific Reports, 2019).

System: MD2-TLR4
Conditions: literature; ref [62]–[65]; cited from earlier work
From the text: Multiple anti-inflammatory immunomodulatory therapies have been developed to ameliorate proinflammation following bacterial infection. […] Therefore, novel therapeutic approaches that decrease inflammatory responses should be developed, and researchers should expand the focus beyond agents that only treat the initial infe ...

CCCCCC/C=C\CCCCCCCCCC(=O)N[C@H]1[C@H](OC[C@H]2O[C@H](OP(=O)(O)O)[C@H](NC(=O)CC(=O)CCCCCCCCCCC)[C@@H](OCCCCCCCCCC)[C@@H]2O)O[C@H](COC)[C@@H](OP(=O)(O)O)[C@@H]1OCC[C@@H](CCCCCCC)OC [eritoran]
outcome in clinical trials (MD2-TLR4 antagonist; in words): unsuccessful in clinical trials
